Test [1] has as its target RORγ ligand binding domain (LBD) (Homo sapiens, UniProt P51449). The test can be described thus: TR-FRET Activity Assay (ligand sensing, RORγ-LBD / coactivator peptide interaction, LANCE). Format: biochemical. The conditions noted are these: first value of the cell FRET/FF/REN.
The target of the next test is RORγ (UniProt P51449). The test can be described thus: RORγ Gal4 Reporter Gene Assay in 293T cells (firefly and renilla luciferase). The format is cell-based, human. Conditions: for pIC50 (FF): second value of the cell, firefly luciferase; for pIC50 (REN): third value of the cell, renilla normalised luciferase.

Chains of the proteins cited; added tags and fusions are not shown. Residues count along the entry.
UniProt P51449, 269-508 limits assumed: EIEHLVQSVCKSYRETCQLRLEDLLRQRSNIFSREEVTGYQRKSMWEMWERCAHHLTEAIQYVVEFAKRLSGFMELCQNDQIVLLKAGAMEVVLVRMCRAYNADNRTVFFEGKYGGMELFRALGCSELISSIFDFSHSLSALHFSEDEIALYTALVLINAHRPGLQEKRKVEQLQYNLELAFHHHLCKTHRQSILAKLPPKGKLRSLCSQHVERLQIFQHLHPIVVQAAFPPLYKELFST

For the molecule `Cc1c(C(=O)NCC(C)(C)N)cc(-c2cc(C(C)(C)C)c3c(c2)C2(CCO3)CC2)n1CC1CCCCC1.Cl` [17/27], the “pIC50 (FRET)” value in test [1] was 5.6/6.3/6.5.

Take `COCC(=O)N1CC(NC(=O)c2cc(-c3cc(C(C)(C)C)cc(C(C)(C)C)c3)n(CC3CCCCC3)c2C)C1`: on RORγ, the “pIC50 (FF)” value was determined as 6.4 and the “pIC50 (REN)” value stood at 6.4. Further, in test [1], the “pIC50 (FRET)” value was found to be 6.2.

On to `Cc1c(C(=O)NC2CCOCC2)cc(-c2cc(C(=O)NC(C)(C)C)c3ccccn23)n1CC1CCCCC1`, for which, on RORγ, the “pIC50 (FF)” value came to 6.9 and the “pIC50 (REN)” value is listed as 6.9. The “pIC50 (FRET)” value in test [1] was 5.8.

With `Cc1c(C(=O)NC2COC2)cc(-c2cc(C(C)(C)C)cc(S(=O)(=O)N(C)C(C)(C)C)c2)n1CC1CCCCC1`, on RORγ, the “pIC50 (FF)” value is recorded as 7.1 and the “pIC50 (REN)” value was 7.2. In addition, the “pIC50 (FRET)” value in test [1] worked out at 6.1.

As to `Cc1c(C(=O)NCC2CNCCO2)cc(-c2cc(C(C)(C)C)c3c(c2)C2(CCO3)CC2)n1CC1CCCCC1.Cl` (centres unmarked) [17/7], in test [1], the “pIC50 (FRET)” value is given as 5.5/<4.7/<4.7.

With `COCCCCNC(=O)c1cc(-c2cc(C(C)(C)C)cc(C(C)(C)C)c2)n(CC2CCCCC2)c1C`, at RORγ, the “pIC50 (FF)” value was determined as 6.4 and the “pIC50 (REN)” value is recorded as 6.5. Also, the “pIC50 (FRET)” value in test [1] is recorded as 6.8.

(Values after patent US9815851B2, “Pyrrolo carboxamides as modulators of orphan nuclear receptor RAR-related orphan receptor-gamma (RORγ, NR1F3) activity and for the treatment of chronic inflammatory and autoimmune diseases” (PHENEX PHARMACEUTICALS AG, priority 2011, dated 2017).)
